From article PMC2878397 (Journal of natural products, 2010)

Target: T1, NF-κB p50 (Homo sapiens, UniProt P19838)
T1 sequence (P19838 1-433 limits assumed): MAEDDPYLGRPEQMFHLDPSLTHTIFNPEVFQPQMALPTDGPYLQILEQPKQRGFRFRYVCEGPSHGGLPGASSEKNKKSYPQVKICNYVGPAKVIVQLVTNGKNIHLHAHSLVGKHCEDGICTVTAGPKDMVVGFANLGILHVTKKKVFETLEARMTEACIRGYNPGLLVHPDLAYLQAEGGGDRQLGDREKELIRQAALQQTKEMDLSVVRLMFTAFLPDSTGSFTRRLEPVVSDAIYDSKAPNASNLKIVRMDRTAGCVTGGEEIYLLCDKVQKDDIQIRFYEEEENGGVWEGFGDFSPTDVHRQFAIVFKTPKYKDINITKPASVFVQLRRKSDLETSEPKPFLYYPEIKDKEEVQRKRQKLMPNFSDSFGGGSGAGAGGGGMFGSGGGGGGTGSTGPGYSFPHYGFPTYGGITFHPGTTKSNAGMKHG
Experiment: Enzyme-based ELISA NF-κB p50 assay
Format: biochemical

In the case of `COc1ccc([C@@]23Oc4cc(OC)cc(OC)c4[C@]2(O)[C@H](O)[C@H](C(=O)N(C)C)[C@H]3c2ccccc2)cc1` [rocaglamide, reference compound], the IC50 is reported as 4 µM.
